Assay results published in US12083113B2, “Use of neuronal nitric oxide synthase inhibitors for immunotherapy in melanoma patients” (Northwestern University, priority 2018, dated 2024).

Assays:
[1] = system: STAT1; assay: Western blot of STAT1 in A375 cells; format: cell-based, human; settings: A375 cells co-treated with IFN-γ; MAC-3-190 at 3 μM, 48 hours
Method: (§1) FIG. 3. A) Effects of IFN-γ on STAT3 and phosphor-STAT3 expression levels in melanoma. A375 cells were treated with 100 units/mL and 250 units/mL of IFN-γ or IFN-α for 24 hours; whole cell lysates and nuclear extracts were used for Western blot analysis to detect STAT3 and pSTAT3 respectively. […]. Protein isolation and Western blotting. All samples were kept at 4° C. unless otherwise noted. Whole cell lysates were collected by incubating cell suspensions in 1× lysis buffer (9803S; Cell Signaling, Danvers, MA) with 1% protease inhibitor cocktail (PIC) for 15 minutes then lysed via sonication at 40% amplitude with 15 seconds on and 15 seconds off for 1 minute. Protein samples were isolated using centrifugation at 14,000 g^−1 for 10 minutes at 4° C.
(§2) Equal amounts of protein, as detected by Bradford assay, were loaded and resolved on 7.5% SDS-polyacrylamide gels, then transferred to Immobilon-P^SQ polyvinylidene difluoride (PVDF) membranes (ISEQ00010; Merck KGaA, Darmstadt, Germany). […] Labeled bands were detected using SuperSignal horseradish peroxidase chemiluminescence reagents (1859674; 1859675; Thermo Fisher Scientific, Waltham, MA) and images were captured and analyzed using the Bio-Rad ChemiDoc XRS^+ System.

[2] = system: A375 human melanoma xenograft; assay: A375 melanoma xenograft, HH044 20 mg/kg (Example 2)
[3] = system: STAT3; assay: Western blot of STAT3 and phospho-STAT3 in A375 cells; format: cell-based, human; settings: A375 cells co-treated with IFN-γ; MAC-3-190 at 3 μM
Method: as §1
Nuclear and cytosolic protein extraction is described elsewhere (84). […]
as §2

Compound | induction/activation of STAT1 by IFN-γ [1] | tumor growth of human melanoma in vivo [2] | induction/activation of STAT3 by IFN-γ [3]
N=C(Nc1ccc(CCNCc2cccc(NC(=N)c3cccs3)c2)cc1)c1cccs1 [HH044] | abolished | inhibited | abolished
CNCc1cccc(CCc2ccc3c(C)cc(N)nc3c2)c1 [MAC-3-190] | inhibited |  | effectively diminished
